Source: the RepoRT retention time repository (doi:10.1021/acs.analchem.1c00972)

Experiment: RP, Waters ACQUITY UPLC BEH C18, 100 × 1 mm, 1.7 µm, 50 °C, 0.3 mL/min, estimated dead time 0.17 min; A: water + 0.1% formic acid + 20 mM ammonium formate; B: methanol + 0.1% formic acid + 20 mM ammonium formate; gradient (min/%B) 0/0 15/100 21/100 22/0 30/0
Conditions: stereoisomer not certain

## COc1ccc(CO)cc1 [4-Methoxybenzyl alcohol]
  LC retention time: 8 min
